Test results taken from ChEMBL document CHEMBL5579834 (Eur J Med Chem, 2024).

Assay: Stability of the compound in whole blood (unknown origin) assessed as fold reduction in relative peak area measured within 2 hrs by chromatographic/mass spectrometric analysis

CN1CCN(CCCC(=O)O[C@H]2C(C)(C)[C@H]3CC[C@]2(C)C3)CC1
fold change (FC): 2
